Experimental findings from ChEMBL document CHEMBL4613246, “Antimycobacterial Rufomycin Analogues from Streptomyces atratus Strain MJM3502” (J Nat Prod, 2020) are described below.

In assay [1] the test system is Mycobacteroides abscessus. Put plainly: Antimycobacterial activity against Mycobacterium abscessus ATCC 19977 assessed as reduction in microbial growth after 7 days by alamar blue assay. The format is functional. To be noted: ATCC 19977, 168 h. On the technique in general: The colour change of resazurin is a common sign of viable cells or microbes.
The test system of a further assay is Vero. Put plainly: cells. To be noted: Chlorocebus sabaeus.

For orientation: MIC means the lowest concentration found to suppress growth. A word on the IC50: it is the concentration that gives 50% inhibition. Low readings indicate higher potency, high ones lower potency. `C=CC(C)(C)n1cc(C[C@@H]2NC(=O)[C@H](CC(C)C)N(C)C2=O)c2ccccc21`: the MIC in assay [1] was greater than 10 µM. The 50% inhibitory concentration (IC50) with Vero was greater than 100 µM.

Take `C/C=C/C[C@@H]1NC(=O)[C@H](CC(C)C)NC(=O)[C@H](CC(C)C)N(C)C(=O)[C@H](C)NC(=O)[C@H](Cc2ccc(O)c([N+](=O)[O-])c2)NC(=O)[C@H](CC(C)C)NC(=O)[C@H](Cc2cn(C(C)(C)[C@H]3CO3)c3ccccc23)NC1=O`: in assay [1], the MIC was greater than 10 µM. Further, in the assay on Vero, the IC50 was greater than 100 µM.

In the assay on Vero, `C/C=C/C[C@@H]1NC(=O)[C@H](CC(C)C)NC(=O)[C@H](C[C@H](C)CO)N(C)C(=O)[C@H](C)NC(=O)[C@H](Cc2ccc(O)c([N+](=O)[O-])c2)NC(=O)[C@H](CC(C)C)N(C)C(=O)[C@H](Cc2cn(C(C)(C)[C@H]3CO3)c3ccccc23)NC1=O` had an IC50 greater than 100 µM.

Turning to `C/C=C/C[C@@H]1NC(=O)[C@H](CC(C)C)NC(=O)[C@H](C[C@@H](C)CO)N(C)C(=O)[C@H](C)NC(=O)[C@H](Cc2ccc(O)c([N+](=O)[O-])c2)NC(=O)[C@H](CC(C)C)N(C)C(=O)[C@H](Cc2cn(C(C)(C)[C@H]3CO3)c3ccccc23)NC1=O`, the IC50 with Vero is greater than 100 µM.

For `C=CC(C)(C)n1cc(C[C@@H]2NC(=O)[C@H](C/C=C/C)NC(=O)[C@H](CC(C)C)NC(=O)[C@H](CC(C)C)N(C)C(=O)[C@H](C)NC(=O)[C@H](Cc3ccc(O)c([N+](=O)[O-])c3)NC(=O)[C@H](CC(C)C)N(C)C2=O)c2ccccc21`, the MIC in assay [1] was greater than 10 µM. This molecule also showed an IC50 with Vero of 100 µM.

Regarding `C=CC(C)(C)n1cc(C[C@@H]2NC(=O)[C@H](C/C=C/C)NC(=O)[C@H](CC(C)C)NC(=O)[C@H](CC(C)C)N(C)C(=O)[C@H](C)NC(=O)[C@H](Cc3ccc(O)cc3)NC(=O)[C@H](CC(C)C)N(C)C2=O)c2ccccc21`, the MIC in assay [1] was greater than 10 µM. Moreover, 89 µM corresponded to half-maximal inhibition with Vero (IC50).

For the molecule `C/C=C/C[C@@H]1NC(=O)[C@H](CC(C)C)NC(=O)[C@H](CC(C)C)N(C)C(=O)[C@H](C)NC(=O)[C@H](Cc2ccc(O)c([N+](=O)[O-])c2)NC(=O)[C@H](CC(C)C)N(C)C(=O)[C@H](Cc2cn(C(C)(C)[C@H](O)CCl)c3ccccc23)NC1=O`, the MIC in assay [1] amounted to 2.3 µM. In addition, the IC50 in the assay on Vero is greater than 100 µM.

On to `C/C=C/C[C@@H]1NC(=O)[C@H](CC(C)C)NC(=O)[C@H](CC(C)C)N(C)C(=O)[C@H](C)NC(=O)[C@H](Cc2ccc(O)c([N+](=O)[O-])c2)NC(=O)[C@H](CC(C)C)N(C)C(=O)[C@H](Cc2cn(C(C)(C)[C@H]3CO3)c3ccccc23)NC1=O`, for which the MIC in assay [1] came to 1.9 µM. In the assay on Vero, this molecule yielded an IC50 of 94 µM.

In the case of `C/C=C/C[C@@H]1NC(=O)[C@H](CC(C)C)NC(=O)[C@H](CC(C)C(OC)OC)N(C)C(=O)[C@H](C)NC(=O)[C@H](Cc2ccc(O)c([N+](=O)[O-])c2)NC(=O)[C@H](CC(C)C)N(C)C(=O)[C@H](Cc2cn(C(C)(C)[C@H]3CO3)c3ccccc23)NC1=O` (stereo partly drawn), the MIC in assay [1] was found to be 2.2 µM. In addition, the IC50 in the assay with Vero is greater than 10 µM.

For `C=CC(C)(C)n1cc(C[C@@H]2NC(=O)[C@H](C/C=C/C)NC(=O)[C@H](CC(C)C)NC(=O)[C@H](C[C@H](C)CO)N(C)C(=O)[C@H](C)NC(=O)[C@H](Cc3ccc(O)c([N+](=O)[O-])c3)NC(=O)[C@H](CC(C)C)N(C)C2=O)c2ccccc21`, the MIC in assay [1] was found to be 9.3 µM. This molecule registered an IC50 with Vero greater than 100 µM.
